Reference: PMC9768162, “Synthesis of macrocyclic nucleoside antibacterials and their interactions with MraY” (Nature Communications, 2022)

Protein sequences, listed by entry. Tags and fused reporters are not part of them.
UniProt O66465, whole entry: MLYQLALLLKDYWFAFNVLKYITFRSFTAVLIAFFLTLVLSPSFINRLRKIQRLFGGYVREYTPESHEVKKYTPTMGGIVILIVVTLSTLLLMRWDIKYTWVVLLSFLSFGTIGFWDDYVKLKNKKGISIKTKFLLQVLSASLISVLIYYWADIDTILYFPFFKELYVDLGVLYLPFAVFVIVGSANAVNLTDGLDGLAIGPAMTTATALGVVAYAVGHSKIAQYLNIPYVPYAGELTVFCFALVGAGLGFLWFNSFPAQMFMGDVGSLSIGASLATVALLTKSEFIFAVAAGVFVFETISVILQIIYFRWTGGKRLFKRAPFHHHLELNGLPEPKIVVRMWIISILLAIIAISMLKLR

Molecular target: MraYAA (Aquifex aeolicus, UniProt O66465)
Assay: UMP-Glo assay
Settings: ratio of IC50 values, SPM-1 vs SPM-2

CCCCCCCCCCCCCCCC(=O)O[C@@H]1[C@@H]2CN(C[C@@H]1O)[C@H](C(=O)O)[C@@H]([C@H]1O[C@@H](n3ccc(=O)[nH]c3=O)[C@H](O)[C@@H]1O)O[C@@H]1O[C@H](CN2)[C@@H](O)[C@H]1O [SPM-1]
fold more potent than SPM-2 against MraYAA: 54 fold
